Test results as given in patent US20260207649A1, “LSD1 INHIBITOR AND PRMT6 INHIBITOR FOR USE IN THE TREATMENT OF A DISEASE ASSOCIATED WITH GAIN-OF-FUNCTION OF ANDROGEN RECEPTOR (AR) AND/OR WITH OVEREXPRESSION OF AN AR COACTIVATOR” (FONDAZIONE TELETHON ETS(30%), priority 2022, published 2026).

Experiments:
AR65Q (human) = AR65Q (human) (UniProt P10275); experiment: cell-based or functional assay
AR24Q (human) = AR24Q (human) (UniProt P10275); experiment: cell-based or functional assay

AR transactivation (ARE-luciferase transcriptional assay, HEK293T cells, DHT 10 nM) (AR65Q (human)): 1.4 fold
AR transactivation (transcriptional assay, HEK293T cells) (AR65Q (human)): 1.5 fold
AR transactivation (ARE-luciferase transcriptional assay, HEK293T cells, DHT 10 nM) (AR24Q (human)): 1.4 fold
AR transactivation (transcriptional assay, HEK293T cells) (AR24Q (human)): 1.3 fold
Substance: lysine specific demethylase 1 (LSD1) (from UniProt O60341 1-852) (enzyme)
